Sequences of proteins named here, by UniProt entry; tags and fusion partners are left off. Residues count along the entry.
UniProt P05556, 21-798 limits assumed: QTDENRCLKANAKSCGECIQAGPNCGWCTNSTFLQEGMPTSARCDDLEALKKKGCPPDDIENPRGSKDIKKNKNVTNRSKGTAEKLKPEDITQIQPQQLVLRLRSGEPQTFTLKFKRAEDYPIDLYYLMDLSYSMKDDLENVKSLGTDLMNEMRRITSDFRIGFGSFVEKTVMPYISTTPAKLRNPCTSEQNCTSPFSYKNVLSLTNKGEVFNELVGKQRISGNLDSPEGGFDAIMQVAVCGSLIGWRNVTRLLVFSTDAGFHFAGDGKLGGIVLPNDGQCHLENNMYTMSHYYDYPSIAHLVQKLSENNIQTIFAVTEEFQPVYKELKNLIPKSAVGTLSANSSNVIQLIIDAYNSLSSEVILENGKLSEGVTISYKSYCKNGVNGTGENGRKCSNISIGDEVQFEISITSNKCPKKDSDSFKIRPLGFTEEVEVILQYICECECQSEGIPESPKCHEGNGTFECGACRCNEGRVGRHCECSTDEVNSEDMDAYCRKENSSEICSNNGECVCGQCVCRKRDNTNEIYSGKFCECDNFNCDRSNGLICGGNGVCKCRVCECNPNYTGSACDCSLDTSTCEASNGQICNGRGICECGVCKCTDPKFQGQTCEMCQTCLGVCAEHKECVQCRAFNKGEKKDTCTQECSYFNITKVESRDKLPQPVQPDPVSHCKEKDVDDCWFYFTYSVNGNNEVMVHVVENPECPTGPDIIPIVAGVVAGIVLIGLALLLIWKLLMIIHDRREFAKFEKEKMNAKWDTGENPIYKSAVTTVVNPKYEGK
UniProt P13612, 34-1032 limits assumed: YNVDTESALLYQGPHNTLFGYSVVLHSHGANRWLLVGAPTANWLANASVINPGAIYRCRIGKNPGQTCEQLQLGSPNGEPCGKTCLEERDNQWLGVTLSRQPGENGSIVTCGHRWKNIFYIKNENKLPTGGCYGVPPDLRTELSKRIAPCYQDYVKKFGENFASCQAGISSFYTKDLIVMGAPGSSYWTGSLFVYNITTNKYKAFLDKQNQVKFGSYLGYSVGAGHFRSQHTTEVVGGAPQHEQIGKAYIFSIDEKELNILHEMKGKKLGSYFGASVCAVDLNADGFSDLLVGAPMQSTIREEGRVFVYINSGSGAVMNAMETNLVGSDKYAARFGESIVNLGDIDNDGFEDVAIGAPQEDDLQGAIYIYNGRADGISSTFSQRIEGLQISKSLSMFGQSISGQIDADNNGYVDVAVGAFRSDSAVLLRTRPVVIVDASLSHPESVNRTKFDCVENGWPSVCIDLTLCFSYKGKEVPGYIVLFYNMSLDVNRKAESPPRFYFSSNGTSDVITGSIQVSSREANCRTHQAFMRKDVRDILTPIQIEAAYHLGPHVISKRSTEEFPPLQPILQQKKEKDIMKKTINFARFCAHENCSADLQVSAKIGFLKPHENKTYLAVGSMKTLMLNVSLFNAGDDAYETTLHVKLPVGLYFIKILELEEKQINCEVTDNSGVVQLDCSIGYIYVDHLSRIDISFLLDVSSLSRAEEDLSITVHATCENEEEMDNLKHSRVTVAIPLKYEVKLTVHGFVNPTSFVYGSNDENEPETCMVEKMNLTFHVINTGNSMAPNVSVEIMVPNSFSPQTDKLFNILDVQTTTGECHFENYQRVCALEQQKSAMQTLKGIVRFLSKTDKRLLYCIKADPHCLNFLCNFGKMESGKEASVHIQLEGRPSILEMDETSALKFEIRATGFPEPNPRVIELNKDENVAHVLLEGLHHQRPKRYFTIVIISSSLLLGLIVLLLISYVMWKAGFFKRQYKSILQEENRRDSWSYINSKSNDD

According to patent US6552216B1, “Molecular model for VLA-4 inhibitors” (Biogen, Inc., priority 1996, dated 2003):

Target: VLA-4 (Homo sapiens, UniProt P05556+P13612)
Assay: VLA-4 direct binding assay (DBA)

Structure (SMILES) | IC50 [µM]
CC(C)CC(NC(=O)Cc1ccc(NC(=O)NC2CCCCC2)cc1)C(=O)NC(CC(=O)O)c1ccc2c(c1)OCO2 (centres unmarked) | 10
CC(C)CC(NC(=O)Cc1ccc(NC(=O)Nc2ccccc2)cc1)C(=O)NC(CC(=O)O)c1ccc2c(c1)OCO2 (centres unmarked) | 0.05
